Reference: US5610140A, “Bradykinin receptor antagonists with neurokinin receptor blocking activity” (priority 1994, dated 1997)

Chains of the proteins cited; added tags and fusions are not shown.
UniProt P25023, whole entry: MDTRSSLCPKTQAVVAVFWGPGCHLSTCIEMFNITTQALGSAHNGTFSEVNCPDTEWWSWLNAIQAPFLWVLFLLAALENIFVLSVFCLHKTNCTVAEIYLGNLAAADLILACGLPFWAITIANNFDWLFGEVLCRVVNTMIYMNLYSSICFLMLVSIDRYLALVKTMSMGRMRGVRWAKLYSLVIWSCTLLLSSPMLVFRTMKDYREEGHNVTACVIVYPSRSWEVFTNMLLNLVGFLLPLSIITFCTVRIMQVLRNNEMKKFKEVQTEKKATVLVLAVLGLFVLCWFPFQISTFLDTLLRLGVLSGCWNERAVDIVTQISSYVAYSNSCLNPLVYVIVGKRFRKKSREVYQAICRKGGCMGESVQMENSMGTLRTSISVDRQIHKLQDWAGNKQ

Target: Bradykinin 2 (BK2) receptor (Rattus norvegicus, UniProt P25023)
Conditions: rat uterus, washed at 10 minute intervals for 40 minutes

Question: How did the “BK2 % Recovery (wash-off)” value turn out when `CC(C)C[C@H](NC(=O)[C@@H](Cc1ccccc1)NC(=O)[C@H](CS)NC(=O)[C@H](Cc1ccccc1)NC(=O)CNC(=O)[C@@H]1C[C@@H](O)CN1C(=O)[C@@H]1CCCN1C(=O)[C@H](CCCNC(=N)N)NC(=O)[C@H](N)CCCNC(=N)N)C(=O)N[C@@H](CCCNC(=N)N)C(=O)O` [CP-0126, D-Arg-Arg-Pro-Hyp-Gly-Phe-Cys-D-Phe-Leu-Arg, reference compound] was run?
Answer: 100%
